## Ab-14 light chain CDR variants: yeast mating affinities

The target is the same throughout: PDVDLGDISGINAS, from the HR2 region of SARS-CoV-2 spike.

Ab-14 is the parent antibody, in scFv form: VH, then a 15-residue (Gly4Ser)3 linker, then VL. The heavy chain is unchanged in all variants.
VH: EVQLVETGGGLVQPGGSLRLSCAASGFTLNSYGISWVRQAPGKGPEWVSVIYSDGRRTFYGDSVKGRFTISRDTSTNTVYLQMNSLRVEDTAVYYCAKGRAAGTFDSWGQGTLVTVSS
VL: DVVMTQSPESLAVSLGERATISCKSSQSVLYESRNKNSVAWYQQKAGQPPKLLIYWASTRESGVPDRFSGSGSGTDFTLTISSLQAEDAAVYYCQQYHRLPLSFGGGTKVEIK

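The starting antibody came from a phage panning campaign against this peptide. This is the validation round: designs drawn from the data on random variants, tested in the same kind of assay. Several design methods are mixed in this list. The scFvs were displayed on barcoded MATa yeast, the peptide on MATalpha yeast. Binding brings cells together so that they mate, and sequencing counts the barcode pairs among the diploids. Read counts were normalised to the haploid input and turned into Kd by a linear fit to BCL2-family pairs of known affinity, for each replicate. Mating was done six times.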

The parent's light chain CDRs are KSSQSVLYESRNKNSVA, WASTRES, QQYHRLPLS; each variant's own CDRs replace them letter for letter. The read-out is the apparent dissociation constant on a log10 scale (nM): the lower, the stronger. Averages over replicates are reported, and they cover detected replicates only. "no signal" marks a missing value. The strain was present, yet no cells mated with the target were sequenced in any replicate, which points to weak or no binding. Values of this round are not directly comparable with the first-round values of the same sequences.

CDR-L1 | CDR-L2 | CDR-L3 | log10 Kd (nM), mean | replicates with signal
KMSQAVPYESRNLNNVA | DGSTRES | QQYHRLPLS | -0.27 | 6 of 6
KVSQSALYESRNKNSVA | WASTRES | QQYHRLPLS | 0.34 | 6 of 6
SLSQSWLYESRNKNSVA | NASTREW | QQYHRLPLS | -0.02 | 6 of 6
KLQQSTLYESRNKNSVA | WASTRES | QQYHRLPLS | 0.88 | 6 of 6
KVSQSMLYESRNKNSVA | NASTRLS | QQYHRLPLS | 0.16 | 6 of 6
HTQHLGFGDYAWANSIA | ERSQVCA | QQYFRLPLI | 1.21 | 6 of 6
KSSQSVLYESRNKNDVA | WASTRES | QQCHRLPLS | no signal | 0 of 6
KLSQSQLYGSRNKNSVA | NASTRES | QQYHRLPLS | 0.81 | 6 of 6
KISMMYRYESTASNNIA | EMTTRAE | QSYHRLPLS | 0.63 | 6 of 6
MISQLYNMGQFAINSVA | QASVRNE | QQYDRLPLE | 1.27 | 1 of 6
KFSQSWLYEDRNKNSVA | NASQRES | QQYHRLPLS | -0.42 | 6 of 6
KSSESVLPPSRGKNSVA | WASTRES | QQYHRLPLS | 0.84 | 3 of 6
KSNQSVLYESQNKNSVA | WASKREK | QQYHRLPLS | 1.86 | 6 of 6
NIVGRAQMQDSGRNAIA | NAHARCT | QQYFRLPLT | 0.78 | 6 of 6
TLMEVGGYELNSHNSIA | DLRTREN | QQYHRLPLS | 0.69 | 6 of 6
KSSISVLYESLNKNSVA | EASTRES | QQYHRLPLS | 1.77 | 3 of 6
KSQQSVLYESRNKNSVA | HASTRED | QLYHRLPLS | 1.74 | 6 of 6
KSSPSVLYESHNKNSVA | NASTRMS | QQYHRLPLS | -0.55 | 6 of 6
KQQYGQDYSSRNDNSVA | DASTRES | QQYHRLPLS | -0.13 | 6 of 6
KSSQSFLYESRNKNSVA | GASTRES | EQYHRLTLS | -0.46 | 6 of 6
TISMVMNHMTKNKNNVA | NMDMRED | QQYDRLPLS | 0.66 | 6 of 6
MAYGGDMLESVTRNSVA | NAETRAD | QDYHRLPLS | no signal | 0 of 6
KWSQSVLYESRNKNSVA | EASTRES | QQYHRLPLS | 1.07 | 6 of 6
KLQNFSQEHNGMWNSIA | DETMKHT | QHYNRLPLV | 2.38 | 2 of 6
KNSQSVLYESPPKNSHA | KASTRPS | QQYHRLPLS | no signal | 0 of 6
KIQWYPLENRGTIQAIA | EASTIYN | QQYMHLPLS | 1.30 | 3 of 6
KISQTFNVGTKNTNSLA | EMSTRGF | QDYHRLPLS | 0.27 | 6 of 6
TISELHNQALGMRNNVA | NNQTRED | QQYNRLPLS | 1.82 | 3 of 6
KCYQSQDYESRNKNAVA | NASQRES | QQYHRLPLS | -0.28 | 6 of 6
KLWQSVLYESRNKNSVA | NASTRLS | QQYHRLPLS | 0.24 | 6 of 6
KLDQKIRVNGMACYNVA | DSNNRLD | QQYHRLPLI | 0.57 | 6 of 6
RSSDYVGYESRNKNSVA | MASTRES | QQYHRLPLS | 0.55 | 6 of 6
KLSQSVLYESRNKNSVA | HASLRED | QQYHRLPLS | 0.31 | 6 of 6

Further variants, results first:

log10 Kd (nM), mean | replicates with signal | CDR-L1 | CDR-L2 | CDR-L3
-0.34 | 6 of 6 | KVDQSVLYESRNKNSVA | NASTRES | QQYHRLPLS
0.17 | 6 of 6 | KLSFSKGGESRNKNSVA | DAGTRES | QQYHRLPLS
0.54 | 6 of 6 | QFDMFENYQGEQNASIA | GTTNRLT | QQYQKLPLS
-0.41 | 6 of 6 | HLSQSELYESRNKNSVA | NASTRLS | QQYHRLPLS
1.65 | 5 of 6 | HMSMLTLSGQRHRNAVA | QMTTREN | QQYDRLPLI
no signal | 0 of 6 | FIDGNQYDKYQVENSIA | DEAQIQA | QQYGLLPLS
1.62 | 6 of 6 | KLLDWYYGTTAMDSNIA | DQALEMD | QQYSRLPLT
0.31 | 6 of 6 | KVSQSHLYESRNKNQVA | EASTRES | QQYHRLPLS
0.22 | 6 of 6 | KISQSHLYESRNWNAVA | EASQRPS | QQYHRLPLS
1.00 | 6 of 6 | MMSQVTGQGTRHRNNVA | QTSMREP | QQYDRLPLI
0.85 | 5 of 6 | KISQMVNFESGHINAVA | QMSTREE | QQYFRLPLS
0.16 | 6 of 6 | KLSQSQGYESRNKNSVA | NASTRES | QQYHRLPLS
-0.04 | 6 of 6 | KLSQSDLYESRNKNNVA | HASTRCS | QQYHRLPLS
2.73 | 5 of 6 | KLQVLKLYWSRNKNSVA | EASTRES | QQYHRLPLS
2.13 | 6 of 6 | NLGQKMALETEQRNSIA | DSTVRED | QQYSRIPLI
no signal | 0 of 6 | MIFYGQERDIAHESSIA | NDMEVSK | QQYYRLPLS
2.11 | 1 of 6 | KVDMYELPNEFNRSHVA | QAEVRAP | QQYWRLPLE
0.01 | 6 of 6 | KHSQSWIYESRNKNSVA | DASTRES | QQYHRLPLS
0.63 | 6 of 6 | RLTEHYYMRADANHAVA | DASTRND | QQYHRLPLW
2.11 | 2 of 6 | KSSQSVLYESRNKNSVA | WASTREE | QQYHRLPLV
0.16 | 6 of 6 | HLNLEYMQMMKDHNSIA | DTEHKTP | QQYFRLPIS
0.00 | 6 of 6 | KSGQGVAYESRNKNSVA | GASTRES | QQYHRLPLS
-0.34 | 6 of 6 | KLPQSELYESRNKNSVA | NASTRED | QQYHRLPLS
0.72 | 6 of 6 | KISQMVRVGSTHSNSIA | EEATRSD | QQYHRLPLA
1.09 | 6 of 6 | QMGYALFHEDAKKKSIA | ENDVKVY | QQYAKLPLT
2.00 | 4 of 6 | ILSQSVLMGMHTKNNVA | QAQMRFN | QQYHRLPFM
0.70 | 6 of 6 | KLRQMTLTEGYFKNSVA | QASTREE | QSYHRLPLS
0.85 | 6 of 6 | KFSQSTGAESNLKNSVA | WASTRES | QQYHRLPLS
0.27 | 6 of 6 | KHSQSVLYESDNKNSVA | SASTRES | QQYHRLPLS
0.20 | 6 of 6 | KLSQSNLYESRNKNSVA | HASTRES | QQYHRLPLS
-0.08 | 6 of 6 | KLQQSELYESRNKNSVA | EASERES | QQYHRLPLS
1.08 | 6 of 6 | KSSQDVLYESQNKNSVA | DASTRES | QQHHRLPLS
0.71 | 6 of 6 | KIQPHLSQSFASKNNVA | DRQLSAE | QQYNRLPLV

The authors averaged sequences with at least three values out of six and counted those with two or fewer as poor binders. Background: pairings of all light chain designs with three empty control strains gave a value in 4% of cases (median 2.64, 5th percentile 1.59). Values in that range, when seen in few replicates, are hard to tell from nonspecific mating.

Data: MIT Lincoln Laboratory AlphaSeq set, Li et al. 2023, doi:10.1038/s41467-023-39022-2, as distributed in FLAb.